Data published in PubChem BioAssay AID938 (National Center for Advancing Translational Sciences (NCATS), 2007).
The list shows a part of the results, in another mix than the full data. Inconclusive results are not listed. Activity calls are given as the source filed them. The call rests on the fitted dose curve; in most records, active means well fitted activation curve with a large enough effect; inconclusive means small, poorly fitted or top-dose-only effect; inactive means no such curve, though single readings can be large or run the other way.

Test: qHTS Assay for Agonists of the Thyroid Stimulating Hormone Receptor: Activators of Intracellular cAMP Concentrations in Parental HEK 293; further: % of control where 0% means no effect; nearly all actives have a fitted effect of over 55% in size
Details: parental HEK293 CNG cAMP sensor, membrane potential fluorescence; at 57.1 µM (top of the series)

SMILES | activation
O=[N+]([O-])C(Cl)(Cl)Cl | inactive: 29.9%
